# scFv variants of Ab-14 (light chain) against a SARS-CoV-2 spike peptide

Target peptide (SARS-CoV-2 spike, HR2 region): PDVDLGDISGINAS

The variants keep the heavy chain, the linker and the frameworks of Ab-14 (scFv order VH, three GGGGS repeats, VL).
VH: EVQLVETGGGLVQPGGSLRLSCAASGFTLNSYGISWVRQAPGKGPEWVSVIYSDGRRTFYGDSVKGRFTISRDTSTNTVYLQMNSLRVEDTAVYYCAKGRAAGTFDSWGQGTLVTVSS
VL: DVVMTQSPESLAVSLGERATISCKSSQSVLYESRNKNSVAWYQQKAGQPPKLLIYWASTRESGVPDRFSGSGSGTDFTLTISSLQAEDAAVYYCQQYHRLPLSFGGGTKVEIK

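Phage display of a naive human antibody library on the peptide gave the parent. Designed CDR sequences, proposed from the first random library and measured here. Group labels follow the data file (Ctrl: baseline library sampled from a position-specific scoring matrix, with some repeated check sequences; GPLM: also part of the Gaussian process libraries; HC: hill climbing; a sequence that several methods proposed may carry one label only). The assay is AlphaSeq: two haploid yeast populations carry antibody and antigen on their surface. Mating (16 h, 30 °C) was followed by selection of diploids and sequencing of their barcodes. Each replicate has its own calibration line, from reference interactions of the BCL2 family. Mating was done six times.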

Each variant is given by its three light chain CDRs, as the data file delimits them; those of the parent are KSSQSVLYESRNKNSVA, WASTRES, QQYHRLPLS.
Scale: log10 of Kd in nM, estimated from mating counts; low values are strong binders.
Averages over replicates are reported, and they cover detected replicates only.
"nd" marks a missing value. The strain was present, yet no cells mated with the target were sequenced in that replicate, which points to weak or no binding.

Variant KSSQSVLYESRNKNSVA / WAWTRAS / QQYHRLPLA [Ctrl] showed nd, nd, 1.47, nd, nd, nd (controls 0 of 18).
Variant KSSQSHLYESRNKNSVA / GASTRES / QQYHRLPLS [Ctrl+GPLM_HC] showed 0.27, 0.06, 0.39, 0.23, 0.15, 0.24; 0.16, 0.48, 0.13, 0.04, 1.11, 0.50 (mean 0.31; controls 2 of 36).
Variant KSSQSQLYESRNKNSVA / RASTRES / QQYHRLPLS [Ctrl] showed 0.76, 0.78, 0.68, 0.54, 1.27, 1.64 (mean 0.95; controls 2 of 18).
Variant KSSQSVLYESRNKNSVA / GASTREL / QQYHRLPLS [Ctrl] showed 0.38, 0.15, 0.22, 0.25, 0.12, 0.45 (mean 0.26; controls 1 of 18).
Variant KSQQSVLYESMNKNSVA / WASTRES / QQYHRLPLS [Ctrl] showed 1.76, 2.20, 1.72, 1.64, 1.42, 2.18 (mean 1.82; controls 0 of 18).
Variant KGSQPCLYESRNKNSVA / SASTRES / QQYHRLPKS [Ctrl] showed nd, nd, nd, nd, nd, nd (controls 0 of 18).
Variant KSSQHVLYENRNKNSVA / WASTRFS / QQYHRLPLS [Ctrl] showed nd, nd, nd, 1.80, nd, nd (controls 0 of 18).
Variant KSSQSDLGNSRQKNSVA / WASVRES / QQYHRNPLS [Ctrl] showed nd, nd, nd, nd, nd, nd (controls 0 of 18).
Variant KDSQSVLYESRNKNSVA / WMSTRAS / QQYHRLPLS [Ctrl] showed nd, 1.81, 2.23, 2.48, 1.64, 2.74 (mean 2.18; controls 0 of 18).
Variant KDSQSVLYESENKNSVA / WASTRES / QQYHRLPLS [Ctrl] showed nd, 0.96, nd, 2.59, nd, 2.45 (mean 2.00; controls 0 of 18).
Variant KSSQIVLYESRNKNSVA / SASTRES / QQYHRLPLS [Ctrl] showed 1.00, 1.07, 1.11, 1.34, 1.13, 0.76 (mean 1.07; controls 0 of 18).
Variant KKRQSVLYESRNKNSIA / DASTRCS / AQYHRLPLS [Ctrl] showed 0.81, 0.85, 1.70, 1.50, 1.02, 1.97 (mean 1.31; controls 2 of 18).
Variant KPSQSVLYESRNKNSVA / WASTRES / NQYHRLPLS [Ctrl] showed nd, nd, nd, nd, nd, nd (controls 0 of 18).
Variant KSSESLEYESRNNNSVA / WASARES / QQYHRLPLS [Ctrl] showed 2.98, nd, nd, nd, 3.21, 3.21 (mean 3.13; controls 2 of 18).
Variant KSSQSVETEDRNKNSVA / WASTRES / QQYHRLPLS [Ctrl] showed nd, nd, nd, nd, nd, nd (controls 0 of 18).
Variant KSSYSLLYDSRNKNSVA / WASTRES / QQYARLPLS [Ctrl] showed nd, nd, nd, nd, nd, nd (controls 0 of 18).
Variant KSSQSVLAGSTEKNSVA / WASTRES / QQYHRLPLS [Ctrl] showed 1.67, 1.43, 1.54, 1.41, 0.97, 2.19 (mean 1.53; controls 1 of 18).
Variant KKSQPVLYESRNKNSVA / KASTRCS / QQYGRLPVS [Ctrl] showed nd, nd, nd, nd, nd, nd (controls 0 of 18).
Variant KPAQSWLYESSNHNSVA / WASMRES / QQYGRLPLS [Ctrl] showed 1.57, 1.36, 1.29, 0.93, 1.25, 1.61 (mean 1.34; controls 0 of 18).
Variant KSSQSVPRESRNKNSVA / WASTRES / QQYHRLPLS [Ctrl] showed nd, nd, nd, nd, nd, nd (controls 0 of 18).
Variant KGSQSVLYESRNKNSVA / WASTRES / QQYHRLPLS [Ctrl] showed 1.61, 0.78, 0.97, 2.07, 1.57, 2.12 (mean 1.52; controls 0 of 18).
Variant KACQSVLYESRNKNSVA / WRSTRES / QQYHRLPLS [Ctrl] showed nd, nd, nd, nd, nd, nd (controls 0 of 18).
Variant KSSQSVLYEERNKFSVA / WASTRES / QQPHRLPLS [Ctrl] showed nd, 1.74, nd, nd, nd, nd (controls 0 of 18).
Variant KIYQSVLYESRNKNSVA / WASTRSQ / QQYHRLPLS [Ctrl] showed 1.55, 1.31, 1.89, 1.49, 1.48, 1.28 (mean 1.50; controls 2 of 18).
Variant KSSQDELYESRNKNSVA / AASWRES / QQYHRLPLS [Ctrl] showed 0.57, 0.98, 0.82, 0.66, 0.69, 0.71 (mean 0.74; controls 0 of 18).
Variant KSSQHVTYESYNQNSVA / SASTRES / QQYHRLPLS [Ctrl] showed 1.60, 1.74, 2.32, 0.96, 1.50, 1.85 (mean 1.66; controls 2 of 18).
Variant KSSQSVLYESRNKNSVA / WGSTRES / QQYSRLPLS [Ctrl] showed 1.78, 1.29, 1.63, 1.52, 1.55, 1.87 (mean 1.61; controls 2 of 18).
Variant KSSQSVLYESRNNNSVA / WAETRES / QQYHRLPLV [Ctrl] showed 2.31, 3.74, nd, 3.17, 4.46, nd (mean 3.42; controls 1 of 18).
Variant KSSQSVLYESRNLNSVA / WAKTRES / QQYHRLPLS [Ctrl] showed nd, 1.34, 2.36, 1.41, 1.72, 1.74 (mean 1.71; controls 1 of 18).
Variant KSSQSVLYESRNKNSVA / WASTRER / QQYHRLPLS [Ctrl] showed nd, nd, nd, nd, nd, nd (controls 0 of 18).
Variant KSSQSVMYESRYKNSVA / WASTRES / QQYHRLPLS [Ctrl] showed nd, 2.88, 2.18, nd, nd, 3.28 (mean 2.78; controls 2 of 18).
Variant KSSQSVPYESRNANSVA / EASTRES / QQYHRLPLS [Ctrl] showed 0.62, 0.80, 0.45, 0.83, 0.63, 0.38 (mean 0.62; controls 0 of 18).
Variant KSSQSVLYESRNKHSVA / WASQRES / GQYHRLPLS [Ctrl] showed nd, nd, nd, nd, nd, nd (controls 0 of 18).
Variant KSYQSVLYESNNKNSVA / WASTRES / QQYHRLPLS [Ctrl] showed nd, 2.19, nd, 2.50, 2.58, 2.45 (mean 2.43; controls 0 of 18).
Variant KGSQSVLYESRNKNSVA / AASTRES / QQYHRLPLS [Ctrl] showed 0.73, 0.80, 0.26, 0.53, 0.99, 0.93 (mean 0.71; controls 0 of 18).
Variant KSSQSVLYESRNKNSVA / WASTRDS / QQYHVLPLS [Ctrl] showed nd, nd, 1.37, 1.68, nd, 1.90 (mean 1.65; controls 1 of 18).
Variant KSSESVLYESLNKNSVA / WDSTRNS / QQYHRLPLF [Ctrl] showed 1.66, nd, nd, nd, nd, nd (controls 1 of 18).
Variant KISQSVLYESRNKNSVA / WASTREQ / QQYHRLPLS [Ctrl] showed 1.32, 1.25, 0.67, 1.05, 0.63, 1.92 (mean 1.14; controls 0 of 18).
Variant KSSKSVFYEIRNKNCVA / WASTRES / QAYHRLPLS [Ctrl] showed nd, nd, nd, nd, nd, nd (controls 0 of 18).
Variant KSSTSTLYESRNCNSVA / GASTRES / QSYHRLPLS [Ctrl] showed 1.22, 0.75, 0.63, 0.65, 0.58, 1.07 (mean 0.82; controls 0 of 18).
Variant KSSQSVMYESRNNNSVA / WASTRES / QQYHILPLS [Ctrl] showed nd, nd, nd, nd, nd, nd (controls 1 of 18).
Variant KSSESVLYESENLNSVA / WASTRES / QQYHRLPLS [Ctrl] showed 1.72, 1.00, 1.93, 1.14, 2.97, 1.77 (mean 1.75; controls 1 of 18).
Variant KSSQSLLYLHRNKNSVA / EASTRES / QQYHRHPLS [Ctrl] showed 0.98, 1.29, 1.07, 1.13, 1.38, 1.96 (mean 1.30; controls 1 of 18).
Variant KSSQAVLDESRAKNSVA / WASTRET / QQPHRLPLS [Ctrl] showed nd, nd, nd, nd, nd, nd (controls 0 of 18).
Variant KSSQSVLEESRNKNSVA / EASQRES / QGYHRLPLS [Ctrl] showed 1.47, 0.75, 0.89, 1.03, 1.13, 1.80 (mean 1.18; controls 1 of 18).
Variant KSSQSVLYESRNKNSVA / WASRRES / QQYHRLPLS [Ctrl] showed nd, nd, nd, nd, nd, nd (controls 0 of 18).
Variant KSSQSVLYESRNKNNVA / WASTRES / QQYHYLPLS [Ctrl] showed nd, 2.27, 3.50, nd, nd, nd (mean 2.88; controls 1 of 18).
Variant KSSQSVLFESNNPNSVA / WASTRES / QQYHRLPLS [Ctrl] showed nd, 1.13, nd, 3.39, 2.36, 1.42 (mean 2.07; controls 1 of 18).

A sequence measured in both rounds can read differently, since the two assays cover different ranges.
Empty control strains, which show no peptide, gave a signal in 4% of pairings with all light chain designs; the median was 2.64 and 95% of these signals were weaker than 1.59. No background was subtracted. The control count says in how many pairings with the empty strains this scFv gave a signal.
In the paper, a design with two or fewer of six values counts as a poor binder.
Of ten entries with the parent sequence, four were seen in most replicates (averages 0.34 to 2.37), three in one and three in none, so single entries are noisy.
Some sequences occur more than once in the pool; their replicates are listed entry by entry, parted by semicolons.

From the AlphaSeq antibody data of Li et al. 2023 (doi:10.1038/s41467-023-39022-2), copy in the FLAb collection.